{"source": "paper PMC7273348", "about": "“Unraveling a Tangled Skein: Evolutionary Analysis of the Bacterial Gibberellin Biosynthetic Operon” (mSphere, 2020)", "biological_target": "T1, ReIDS2 (ReGGPS2) (Rhizobium etli, UniProt Q8KLD2)", "T1 construct": "gene RHE_PD00244; full-length ORF in pET101/D-TOPO, C-terminal 6xHis tag, E. coli BL21 Star", "T1 sequence (Q8KLD2 1-309)": "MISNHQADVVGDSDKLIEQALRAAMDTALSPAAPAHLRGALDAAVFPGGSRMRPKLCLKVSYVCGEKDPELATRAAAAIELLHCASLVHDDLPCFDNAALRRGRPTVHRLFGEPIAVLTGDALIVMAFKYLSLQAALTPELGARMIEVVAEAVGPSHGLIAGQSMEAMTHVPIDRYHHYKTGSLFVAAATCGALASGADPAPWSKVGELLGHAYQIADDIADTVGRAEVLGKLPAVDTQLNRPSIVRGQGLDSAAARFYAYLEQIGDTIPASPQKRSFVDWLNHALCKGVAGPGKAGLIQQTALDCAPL", "experiment": "LC-MS/MS detection of GGPP product", "format": "biochemical", "settings": "50 uM IPP + 50 uM DMAPP; MOPSO pH 7.2, 10 mM MgCl2; 30 C, 2 h; main product GGPP", "data": [{"smiles": "C=C(C)CCOP(=O)(O)OP(=O)(O)O", "note": "[IPP]", "values": [{"measurement": "LC-MS/MS detection of GGPP product", "result": "produced GGPP as its major product from the universal isoprenoid precursors IPP and DMAPP"}]}]}
